Test results: patent publication US8236762B2, “Peptide-cytotoxic conjugates” (IPSEN Pharma S.A.S., priority 2006, dated 2012)

Assays:
[1] = Half-life determination in human plasma (LC-MS); assay type: in vitro ADME; conditions: 37° C.
Method: (§1) Samples containing approximately 50 μg/ml up to and including approximately 500 μg/ml of test compound according to Formula IA or IB or II was added to 450 μl human or mouse plasma, vortexed briefly and incubated at 37° C. At various time intervals, e.g., 0, 0.5, 1, 2, 4, 6, 8, 24, 36 and 48 hours, 50 μl of the compound-plasma mixture was added to 150 μl acetonitrile in a microcentrifuge tube. The mixture was vortexed, centrifuged for 5 minutes at 10K RPM, and 135 μl of supernatant was transferred to an injection vial. The recovered supernatant was analyzed by using a liquid chromatography-mass spectrophotometer system (LC-MS) consisting of a Finnigan Deca XP® mass spectrometer with an ESI probe at the positive ion mode. HPLC separation was carried out on a Luna 3μ C8 (2)® 3×50 mm column with a gradient decreasing from 100% A to 80% B for 10 minutes at a flow rate of 0.25 ml/min. Buffer A was 0.1% acetic acid in water and buffer B was 0.1% acetic acid acetonitrile.

[2] = Half-life determination in mouse plasma (LC-MS); assay type: in vitro ADME; conditions: 37° C.
Method: as §1

With “Camptothecin-rvD-Asp-Suc-(Doc)4-Aepa-D-Phe-c(Cys-Tyr-D-Trp-Lys-Abu-Cys)-Thr-NH2 Camptothecin-rvAsp-Suc-(Doc)4-Aepa-D-Phe-c(Cys-Tyr-D-Trp-Lys-Abu-Cys)-Thr-NH2 [Example 5A]” as the substance, how does the “Half-life in Human Plasma” value [1] read?
The value was 10.8 h.

What about the “Half-life in Mouse Plasma” value [2] of the same substance?
The value was 20.8 h.

With “Camptothecin-rvD-Asp-Suc-(Doc)4-Aepa-D-Phe-c(Cys-Tyr-D-Trp-Lys-Abu-Cys)-Thr-NH2 Camptothecin-rvAsp-Suc-(Doc)4-Aepa-D-Phe-c(Cys-Tyr-D-Trp-Lys-Abu-Cys)-Thr-NH2 [Example 5B]” as the substance, how does the “Half-life in Human Plasma” value [1] read?
Its value is 10.3 h.

And the “Half-life in Mouse Plasma” value [2]?
Its value is 27.5 h.

For “Camptothecin-rvD-Glu-Suc-(Doc)4-Aepa-D-Phe-c(Cys-Tyr-D-Trp-Lys-Abu-Cys)-Thr-NH2 and Camptothecin-rvGlu-Suc-(Doc)4-Aepa-D-Phe-c(Cys-Tyr-D-Trp-Lys-Abu-Cys)-Thr-NH2 [Example 6]”, which “Half-life in Human Plasma” value [1] is on record?
The value was 10.7 h.

What about the “Half-life in Mouse Plasma” value [2] of the same substance?
The value was 13.1 h.
